From BindingDB's records for PubMed 11408610 (Virginia Commonwealth University, 2001)

Protein sequences, listed by entry. Tags and fused reporters are not part of them.
UniProt P20272, whole entry: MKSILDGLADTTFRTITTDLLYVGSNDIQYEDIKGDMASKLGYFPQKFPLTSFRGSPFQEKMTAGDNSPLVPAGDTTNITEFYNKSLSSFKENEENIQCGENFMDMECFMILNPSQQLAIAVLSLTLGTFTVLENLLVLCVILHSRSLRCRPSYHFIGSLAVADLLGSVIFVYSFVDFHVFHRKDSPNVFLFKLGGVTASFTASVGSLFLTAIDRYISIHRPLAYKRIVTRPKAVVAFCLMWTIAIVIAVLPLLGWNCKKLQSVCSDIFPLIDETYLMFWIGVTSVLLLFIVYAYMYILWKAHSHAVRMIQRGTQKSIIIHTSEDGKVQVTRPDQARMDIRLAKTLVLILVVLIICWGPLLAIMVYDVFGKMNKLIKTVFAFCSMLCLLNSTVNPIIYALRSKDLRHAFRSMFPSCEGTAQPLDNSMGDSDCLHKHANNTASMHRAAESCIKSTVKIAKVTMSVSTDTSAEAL

Target: Cannabinoid receptor 1 (Rattus norvegicus, UniProt P20272)

## CCCCC/C=C/C/C=C/C/C=C/C/C=C/CCCC(=O)NC(C)CO (stereo unspecified) [(5Z,8Z,11Z,14Z)-N-(1-Methyl-2-hydroxyethyl)-5,8,11,14-icosatetrenamide]
  Ki: 137 nM
